# From IntAct's records for PubMed 16678108
# B1: FACT complex subunit POB3 (Saccharomyces cerevisiae), Q04636 (parent)
# chain: MSTDFDRIYLNQSKFSGRFRIADSGLGWKISTSGGSAANQARKPFLLPATELSTVQWSRGCRGYDLKINTKNQGVIQLDGFSQDDYNLIKNDFHRRFNIQVEQREHSLRGWNWGKTDLARNEMVFALNGKPTFEIPYARINNTNLTSKNEVGIEFNIQDEEYQPAGDELVEMRFYIPGVIQTNVDENMTKKEESSNEVVPKKEDGAEGEDVQMAVEEKSMAEAFYEELKEKADIGEVAGDAIVSFQDVFFTTPRGRYDIDIYKNSIRLRGKTYEYKLQHRQIQRIVSLPKADDIHHLLVLAIEPPLRQGQTTYPFLVLQFQKDEETEVQLNLEDEDYEENYKDKLKKQYDAKTHIVLSHVLKGLTDRRVIVPGEYKSKYDQCAVSCSFKANEGYLYPLDNAFFFLTKPTLYIPFSDVSMVNISRAGQTSTSSRTFDLEVVLRSNRGSTTFANISKEEQQLLEQFLKSKNLRVKNEDREVQERLQTALGSDSDEEDINMGSAGEDDESVDEDFQVSSDNDADEVAEEFDSDAALSDAEGGSDEERPSKKPKVE
# Variants of: B1
# Details: with rfa1_yeast RFA1, P22336
row,effect of a mutation on the interaction,Variant
1,decreasing interaction,Q308R
2,decreasing interaction,Q308K
